According to patent publication US10239843B2 (CANCER RESEARCH TECHNOLOGY LIMITED, priority 2014, dated 2019):
Like-named read-outs stand apart in the source and are kept apart here.

Chains of the proteins cited; added tags and fusions are not shown. Lines headed by an entry give the natural chain unless they say otherwise; changes in a name come on top.
UniProt Q86W56: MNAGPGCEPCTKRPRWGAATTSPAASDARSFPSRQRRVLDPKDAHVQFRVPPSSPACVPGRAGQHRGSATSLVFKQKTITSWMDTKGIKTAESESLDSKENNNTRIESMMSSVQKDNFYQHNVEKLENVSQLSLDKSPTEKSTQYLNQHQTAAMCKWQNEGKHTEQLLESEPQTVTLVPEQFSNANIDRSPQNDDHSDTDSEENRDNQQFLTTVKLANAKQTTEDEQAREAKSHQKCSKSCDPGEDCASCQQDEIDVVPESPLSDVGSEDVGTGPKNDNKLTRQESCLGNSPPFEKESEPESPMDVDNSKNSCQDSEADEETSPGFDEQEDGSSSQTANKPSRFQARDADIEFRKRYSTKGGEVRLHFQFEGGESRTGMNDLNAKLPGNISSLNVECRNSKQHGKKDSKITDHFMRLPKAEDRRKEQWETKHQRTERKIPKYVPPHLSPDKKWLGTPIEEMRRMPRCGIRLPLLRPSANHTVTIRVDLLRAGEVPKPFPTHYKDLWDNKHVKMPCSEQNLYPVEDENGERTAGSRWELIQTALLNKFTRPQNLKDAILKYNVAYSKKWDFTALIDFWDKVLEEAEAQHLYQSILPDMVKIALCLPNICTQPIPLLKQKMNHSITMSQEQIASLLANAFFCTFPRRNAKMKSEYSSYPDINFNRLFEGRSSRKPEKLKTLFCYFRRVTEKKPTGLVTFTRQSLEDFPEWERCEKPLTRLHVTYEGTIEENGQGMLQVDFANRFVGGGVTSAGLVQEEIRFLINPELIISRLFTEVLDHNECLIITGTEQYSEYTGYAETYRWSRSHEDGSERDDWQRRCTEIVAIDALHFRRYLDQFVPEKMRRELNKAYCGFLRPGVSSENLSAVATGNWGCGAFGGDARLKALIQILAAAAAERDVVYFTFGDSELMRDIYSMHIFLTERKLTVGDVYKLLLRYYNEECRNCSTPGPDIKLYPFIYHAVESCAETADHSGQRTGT

Columns and labels:
[1] = tested on: PARG in HeLa cell line; assay: PARG cell assay (PAR chain immunofluorescence after MMS); assay type: cell-based; conditions: Homo sapiens, read-out: PARG Cell IC50
[2] = target: Human Full Length PARG (Homo sapiens (Human), UniProt Q86W56); assay: PARG enzyme assay (TR-FRET); assay type: biochemical
[3] = read-out: PARG Biochem IC50 Geomean

Row | Structure (SMILES) | IC50 [2, 3] | other results
1 | CC1(NS(=O)(=O)c2ccc3ccnc(Cl)c3c2)CC1 [Example 484, 1-Chloro-N-(1-methylcyclopropyl)isoquinoline-7-sulfonamide] | – | IC50 [1]: 1.61 µM
2 | Cc1noc(C)c1Cn1c(=O)c2cc(S(=O)(=O)NC3(C)CC3)ccc2n(Cc2c(C)noc2C)c1=O [Eaxmple 129] | 1.04 µM | –
3 | C[C@@H](c1ccccc1)n1c(=O)n(C)c(=O)c2cc(S(=O)(=O)NC3(C)CC3)ccc21 [Exampel 132] | 5.3 µM | –
4 | Cc1cc(Cn2c(=O)n(Cc3nnc(C)s3)c(=O)c3cc(S(=O)(=O)NC4(CF)CC4)ccc32)n(C)n1 [Example 603, 1-[(2,5-Dimethylpyrazol-3-yl)methyl]-N-[1-(fluoromethyl)cyclopropyl]-3-[(5-methyl-1,3,4-thiadiazol-2-yl)methyl]-2,4-dioxo-quinazoline-6-sulfonamide] | – | IC50 ([2]; read-out: PARG Biochem IC50): 0.029 µM
5 | Cn1c(=O)n(CC(=O)c2ccc(N)cc2)c(=O)c2cc(S(=O)(=O)NC3(C)CC3)ccc21 [Example 87] | 1.16 µM | –
6 | Cn1cc(Cn2c(=O)c3cc(S(=O)(=O)NC4(C)CC4)ccc3n(CC3CC3)c2=O)cn1 [Example 174] | 0.029 µM | –
